Our source for the Potency values is PubChem BioAssay AID652104 (National Center for Advancing Translational Sciences (NCATS), 2013).

This is a selection; strong and weak results do not stand in their true shares. Inconclusive results are not listed. Activity calls are given as the source filed them. Calls come from the whole dose curve; as a rule, active = well fitted activation curve with a large enough effect; inconclusive = small, poorly fitted or top-dose-only effect, or another doubt; inactive = no such curve, though single readings can be large or run the other way.
Potency is the fitted concentration of half-maximal effect.

The assay is described as follows: qHTS of TDP-43 Inhibitors. Note: nearly all actives have a fitted effect of over 50% in size. The note with it: TDP-43 expressing yeast growth rescue, BacTiter-Glo, 24 h. The text has this:
The goal of this project is to identify new chemical probes capable of reversing the toxicity associated with TDP-43 which is associated with frontotemporal lobar degeneration and amyotrophic lateral sclerosis. These compounds will provide a complementary approach to deciphering the tangled mechanisms of toxicity and protection that we have uncovered through genome-wide genetic screens and are beginning to uncover in a large-scale proteomics analysis with mass spectroscopy.
To this end, a miniaturized assay was developed to be screened against the Molecular Libraries Small Molecule Repository (MLSMR) to discover TDP-43 inhibitors. Please note that in the set-up this yeast-based assay compounds that inhibit as TDP-43, have a read-out as activators.
NIH Chemical Genomics Center [NCGC]
NIH Molecular Libraries Probe Centers Network [MLPCN]
Assay Submitter (PI): Susan Lindquist, Whitehead Institute/MIT
Dispense 2.5 microL yeast galactose medium per 1536-well plate, pin compound, dispense 2.5 microL TDP-43 expressing yeast in galactose medium at OD600=0.02 (pregrown in raffinose medium to mid-log phase) per well, incubate for 24 hr at 30 deg C, and cell growth will be measured using 5 microL of Bactiter/Glo reagent to entire plate and read using Luminescence Protocol in ViewLux.
(In general: In qHTS, concentration-response curves come from the screen itself.)
In the case of `COc1ccc2cc(C(C)C(=O)O)ccc2c1` (configuration not stated), the Potency is active: 14.1 µM.
The same measure for `COc1ccc2cc([C@H](C)C(=O)O)ccc2c1`: active: 22.4 µM.
